From ChEMBL document CHEMBL5223066, “The medicinal chemistry of mitochondrial dysfunction: a critical overview of efforts to modulate mitochondrial health” (RSC Med Chem, 2021)

Sequences of proteins named here, by UniProt entry; tags and fusion partners are left off. Residues count along the entry.
UniProt P04839, 2-570 limits assumed: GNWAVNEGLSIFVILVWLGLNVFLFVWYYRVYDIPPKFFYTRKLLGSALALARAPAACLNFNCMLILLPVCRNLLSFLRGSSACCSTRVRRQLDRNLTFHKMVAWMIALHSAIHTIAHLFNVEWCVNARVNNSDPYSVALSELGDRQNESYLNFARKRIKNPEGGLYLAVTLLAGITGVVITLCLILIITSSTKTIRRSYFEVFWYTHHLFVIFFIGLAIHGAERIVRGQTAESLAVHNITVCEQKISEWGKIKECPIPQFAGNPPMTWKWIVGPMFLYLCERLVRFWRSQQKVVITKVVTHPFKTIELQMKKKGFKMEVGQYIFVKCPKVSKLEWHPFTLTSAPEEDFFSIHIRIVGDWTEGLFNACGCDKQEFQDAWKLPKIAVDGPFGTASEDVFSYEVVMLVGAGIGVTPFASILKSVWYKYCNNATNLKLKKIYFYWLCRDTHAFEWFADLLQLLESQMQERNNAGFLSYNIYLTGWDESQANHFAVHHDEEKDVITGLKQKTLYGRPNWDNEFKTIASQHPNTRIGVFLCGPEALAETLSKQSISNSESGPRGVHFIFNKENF

How the values were obtained:
[1] = Ratio of drug level in brain to blood in rat at 1 mg/kg, iv
[2] = target: NADPH oxidase 2 (Homo sapiens, UniProt P04839); assay: Inhibition of NOX2 (unknown origin)

CC(C)n1cc(-c2ccc3c(c2)N(C)CC3)c2c(NS(=O)(=O)c3cnn(C)c3)ccnc21
Ratio [1]: 0.82 | IC50 [2]: 500 nM
